From PubChem BioAssay AID463075 (University of Pittsburgh Molecular Library Screening Center, 2010)
This is a selection; strong and weak results do not stand in their true shares. Some of these compounds have results that are not shown, active ones among them. Active and inactive are the calls of the source.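 The calls were made as follows: active = activation, meaning protection from cell death, of at least 50% relative to plate controls; inactive = activation below 50%.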

Test: inhibitors of TNF-alpha triggered necroptosis, primary screen, cell-based, Jurkat FADD-/-, single concentration (AID 463075);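 also: necroptosis triggered by 40 ng/mL TNF-alpha added together with compound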
Conditions: Jurkat FADD-/- TNF necroptosis rescue, ATP luminescence, 24 h; at 10 µM; active compounds read high; 0 = TNF only, 100 = no-TNF cells

SMILES | activation (protection from cell death)
Cc1ccccc1C(=O)NCC1(N2CCCCC2)CCCCC1 | inactive: 0.175%
CN(C)C1CCCC1OC(=O)C(O)(c1ccccc1)c1ccccc1 (stereo unspecified) | inactive: 1.91%
C=CCN1CCN(CCOC(=O)C(O)(c2ccccc2)c2ccccc2)CC1 | inactive: 0.349%
CCN1CCCC(OC(=O)C2(O)c3ccccc3C=Cc3ccccc32)C1 (stereo unspecified) | inactive: 3%
O=C(NCC1(N2CCCCC2)CCCCC1)c1cc([N+](=O)[O-])ccc1Cl | inactive: 1.17%
CC(C)N1C(=O)CC2(CCN(CCOC(=O)C(O)(c3ccccc3)c3ccccc3)CC2)C1=O | inactive: -3.72%
CCN(CC)CC(C)C(C)OC(=O)C(O)(c1ccccc1)c1ccccc1 (stereo unspecified) | inactive: 7.81%
O=C(OC1CN2CCC1CC2)C(CO)(c1ccccc1)c1ccccc1 (stereo unspecified) | inactive: 0.0536%
COc1ccc(Br)c(C(=O)NCC2(N3CCCCC3)CCCCC2)c1 | inactive: -0.174%
CN(C)c1cccc(C(=O)NCC2(N(C)C)CCCCC2)c1 | inactive: 0.754%
COc1cccc(C(=O)NCC2(N3CCCCC3)CCCCC2)c1 | inactive: 0.577%
